According to ChEMBL document CHEMBL5512603, “Development of de-novo coronavirus 3-chymotrypsin-like protease (3CLpro) inhibitors since COVID-19 outbreak: A strategy to tackle challenges of persistent virus infection” (Eur J Med Chem, 2024):

Molecular target: Replicase polyprotein 1ab (Severe acute respiratory syndrome coronavirus 2, UniProt P0DTD1)
Test: Inhibition of SARS-CoV-2 recombinant main protease
Format: single protein

## O=c1[nH]cc(-c2cc(-c3cc(Cl)cc(OCCC(F)(F)F)c3)c(=O)n(-c3cccnc3)c2)c(=O)[nH]1
  IC50: 110 nM
